Results: patent publication US10912763B2 (priority 2010, dated 2021)
Read-outs that look alike come from different tables or passages of the source.

Legend:
[1] = system: acute post-operative pain following orthopedic surgery (bunionectomy)
[2] = for Cmax,5d, arithmetic mean / Cmax,5d, geometric mean / tmax,5d, geometric mean / tmax,5d, arithmetic mean: day 5; for mean C0-3 h, 1 d: 0-3 h after administration on day 1; for mean C0-3 h, 1 d / mean C0-3 h, 5 d: mean ± SD; for mean C0-3 h, 5 d: 0-3 h after administration on day 5
[3] = Saturation concentration of (I′b) in oils, surfactants, solvents and their mixtures
[4] = Storage stability of SMEDDS hard gelatin capsules (25° C./60% RH and 40° C./75% RH); details: for Content of decomposition product 6′-fluoro-4-phenyl-4′,9′-dihydro-3′H-spiro[cyclohex-3-ene-1,1′-pyrano[3,4-b]indole]: SMEDDS hard gelatin capsule, 40° C. and 75% rh
[5] = Bioavailability study after single oral administration (capsule or tablet vs oral solution); details: single oral dose of 400 μg, independent from the galenic formulation

With CN(C)[C@]1(c2ccccc2)CC[C@]2(CC1)OCCc1c3cc(F)ccc3[nH]c12 the “subjects with TEAE(s), related” value ([1]; single dose 200 μg) was 24 (43.6) n (%), the “subjects with TEAE(s), serious” value ([1]; single dose 200 μg) was 0 n (%) and the “total number of TEAE's” value ([1]; single dose 200 μg) was 75 n. For the same compound, the “total number of TEAE's, related” value ([1]; single dose 200 μg) was 37 (49.3) n (%), the “TEAE ASAT increased, subjects” value ([1]; single dose 400 μg) was 6.1% and the “TEAE Dizziness, subjects” value ([1]; single dose 400 μg) was 22.4%. The “TEAE Hot flush, subjects” value ([1]; single dose 400 μg) was 4.1%, the “TEAE Hyperhidrosis, subjects” value ([1]; single dose 400 μg) was 0% and the “TEAE Nausea, subjects” value ([1]; single dose 400 μg) was 49.0%. The “TEAE Pruritus, subjects” value ([1]; single dose 400 μg) was 6.1%, the “TEAE Somnolence, subjects” value ([1]; single dose 400 μg) was 10.2% and the “TEAE Vomiting, subjects” value ([1]; single dose 400 μg) was 20.4%. The deaths ([1]; single dose 400 μg) was 0, the “subjects with SAE's” value ([1]; single dose 400 μg) was 0 and the “subjects with TEAE(s)” value ([1]; single dose 400 μg) was 38 (77.6) n (%). For the same compound, the “subjects with TEAE(s), related” value ([1]; single dose 400 μg) was 32 (65.3) n (%), the “subjects with TEAE(s), serious” value ([1]; single dose 400 μg) was 0 n (%) and the “total number of TEAE's” value ([1]; single dose 400 μg) was 125 n. The “total number of TEAE's, related” value ([1]; single dose 400 μg) was 74 (59.2) n (%), the “TEAE ASAT increased, subjects” value ([1]; single dose 600 μg) was 1.8% and the “TEAE Dizziness, subjects” value ([1]; single dose 600 μg) was 26.3%. For the same compound, the “TEAE Hot flush, subjects” value ([1]; single dose 600 μg) was 7.0%, the “TEAE Hyperhidrosis, subjects” value ([1]; single dose 600 μg) was 5.3% and the “TEAE Nausea, subjects” value ([1]; single dose 600 μg) was 64.9%. For the same compound, the “TEAE Pruritus, subjects” value ([1]; single dose 600 μg) was 3.5%, the “TEAE Somnolence, subjects” value ([1]; single dose 600 μg) was 14.0% and the “TEAE Vomiting, subjects” value ([1]; single dose 600 μg) was 49.1%. For the same compound, the deaths ([1]; single dose 600 μg) was 0, the “subjects with SAE's” value ([1]; single dose 600 μg) was 0 and the “subjects with TEAE(s)” value ([1]; single dose 600 μg) was 48 (84.2) n (%). The “subjects with TEAE(s), related” value ([1]; single dose 600 μg) was 43 (75.4) n (%), the “subjects with TEAE(s), serious” value ([1]; single dose 600 μg) was 0 n (%) and the “total number of TEAE's” value ([1]; single dose 600 μg) was 198 n. The “total number of TEAE's, related” value ([1]; single dose 600 μg) was 146 (73.7) n (%), the “Cmax,5d, arithmetic mean” value ([2]; dosage 40 μg once daily) was 0.02739 ng/mL and the “Cmax,5d, geometric mean” value ([2]; dosage 40 μg once daily) was 0.02539 ng/mL. The “tmax,5d, geometric mean” value ([2]; dosage 40 μg once daily) was 4.654 h, the “mean C0-3 h, 1 d” value ([2]; dosage 40 μg) was 18.5 ± 18.1 (N = 23) pg/mL and the “mean C0-3 h, 5 d” value ([2]; dosage 40 μg) was 14.8 ± 8.7 (N = 26) pg/mL. The “Cmax,5d, arithmetic mean” value ([2]; dosage 80 μg once daily) was 0.0602 ng/mL, the “Cmax,5d, geometric mean” value ([2]; dosage 80 μg once daily) was 0.05689 ng/mL and the “tmax,5d, arithmetic mean” value ([2]; dosage 80 μg once daily) was 5.150 h. For the same compound, the “mean C0-3 h, 1 d” value ([2]; dosage 80 μg) was 26.5 ± 15.4 (N = 21) pg/mL, the “mean C0-3 h, 5 d” value ([2]; dosage 80 μg) was 40.3 ± 16.4 (N = 22) pg/mL and the “Cmax,5d, arithmetic mean” value ([2]; dosage 100 μg once daily) was 0.07524 ng/mL. The “Cmax,5d, geometric mean” value ([2]; dosage 100 μg once daily) was 0.06917 ng/mL, the “tmax,5d, arithmetic mean” value ([2]; dosage 100 μg once daily) was 5.125 h and the “tmax,5d, geometric mean” value ([2]; dosage 100 μg once daily) was 4.658 h. The “mean C0-3 h, 1 d” value ([2]; dosage 100 μg) was 24.6 ± 19.7 (N = 33) pg/mL, the “mean C0-3 h, 5 d” value ([2]; dosage 100 μg) was 49.1 ± 27.9 (N = 37) pg/mL and the “Cmax,5d, arithmetic mean” value ([2]; dosage 120 μg once daily) was 0.08649 ng/mL. For the same compound, the “Cmax,5d, geometric mean” value ([2]; dosage 120 μg once daily) was 0.07981 ng/mL, the “tmax,5d, arithmetic mean” value ([2]; dosage 120 μg once daily) was 4.591 h and the “tmax,5d, geometric mean” value ([2]; dosage 120 μg once daily) was 4.288 h. The “mean C0-3 h, 1 d” value ([2]; dosage 120 μg) was 34.7 ± 25.8 (N = 26) pg/mL, the “mean C0-3 h, 5 d” value ([2]; dosage 120 μg) was 50.0 ± 30.6 (N = 25) pg/mL and the “Cmax,5d, arithmetic mean” value ([2]; dosage 200 μg once daily) was 0.16038 ng/mL. The “Cmax,5d, geometric mean” value ([2]; dosage 200 μg once daily) was 0.15468 ng/mL, the “tmax,5d, arithmetic mean” value ([2]; dosage 200 μg once daily) was 5.745 h and the “tmax,5d, geometric mean” value ([2]; dosage 200 μg once daily) was 5.269 h. For the same compound, the “mean C0-3 h, 1 d” value ([2]; dosage 200 μg) was 53.3 ± 40.1 (N = 22) pg/mL, the “mean C0-3 h, 5 d” value ([2]; dosage 200 μg) was 105.2 ± 34.6 (N = 22) pg/mL and the “Solubility of (I′b) (in surfactant/oil)” value ([3]; in Gelucire 44/14/Capryol 5:95 wt.-%/wt.-%) was 3.06 mg/g. For the same compound, the “Solubility of (I′b) (in surfactant/oil)” value ([3]; in Gelucire 44/14/Capryol 10:90 wt.-%/wt.-%) was 3.31 mg/g, the “Solubility of (I′b) (in surfactant/oil)” value ([3]; in Gelucire 44/14/Capryol 20:80 wt.-%/wt.-%) was 4.05 mg/g and the “Solubility of (I′b) (in surfactant/oil)” value ([3]; in Gelucire 44/14/Capryol 40:60 wt.-%/wt.-%) was 6.07 mg/g. For the same compound, the “Solubility of (I′b) (in surfactant/oil)” value ([3]; in Solutol HS/Capryol 5:95 wt.-%/wt.-%) was 3.01 mg/g, the “Solubility of (I′b) (in surfactant/oil)” value ([3]; in Solutol HS/Capryol 10:90 wt.-%/wt.-%) was 3.14 mg/g and the “Solubility of (I′b) (in surfactant/oil)” value ([3]; in Solutol HS/Capryol 20:80 wt.-%/wt.-%) was 3.65 mg/g. For the same compound, the “Solubility of (I′b) (in surfactant/oil)” value ([3]; in Solutol HS/Capryol 40:60 wt.-%/wt.-%) was 4.56 mg/g, the “Unity of the drug content, drug's purity, release of the drug on storage” value ([4]; SMEDDS capsules 50 μg and 400 μg, 25° C./60% RH and 40° C./75% RH, 6 months) was “met the demands of the ICH and FDA guidelines” and the “Content of decomposition product 6′-fluoro-4-phenyl-4′,9′-dihydro-3′H-spiro[cyclohex-3-ene-1,1′-pyrano[3,4-b]indole]” value ([4]; dosage 50 μg, 1 month) was 0.16%. The “Content of decomposition product 6′-fluoro-4-phenyl-4′,9′-dihydro-3′H-spiro[cyclohex-3-ene-1,1′-pyrano[3,4-b]indole]” value ([4]; dosage 50 μg, 3 months) was 0.25%, the “Content of decomposition product 6′-fluoro-4-phenyl-4′,9′-dihydro-3′H-spiro[cyclohex-3-ene-1,1′-pyrano[3,4-b]indole]” value ([4]; dosage 50 μg, 6 months) was 0.42% and the “Content of decomposition product 6′-fluoro-4-phenyl-4′,9′-dihydro-3′H-spiro[cyclohex-3-ene-1,1′-pyrano[3,4-b]indole]” value ([4]; dosage 400 μg, 1 month) was 0.09%. For the same compound, the “Content of decomposition product 6′-fluoro-4-phenyl-4′,9′-dihydro-3′H-spiro[cyclohex-3-ene-1,1′-pyrano[3,4-b]indole]” value ([4]; dosage 400 μg, 3 months) was 0.12%, the “Content of decomposition product 6′-fluoro-4-phenyl-4′,9′-dihydro-3′H-spiro[cyclohex-3-ene-1,1′-pyrano[3,4-b]indole]” value ([4]; dosage 400 μg, 6 months) was 0.25% and the Safety and tolerability [5] was “safe and well tolerated”.
